scFv variants of Ab-14 (light chain) against a SARS-CoV-2 spike peptide

From the AlphaSeq antibody data of Engelhart et al. 2022 (doi:10.1038/s41597-022-01779-4), copy in the FLAb collection.

All variants were tested on one target, the spike HR2 peptide PDVDLGDISGINAS (SARS-CoV-2).

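AAYL50 was designed without a model: most single CDR substitutions and a random sample of double and triple ones. The assay is AlphaSeq: two haploid yeast populations carry antibody and antigen on their surface. Pairs that bind mate more often; barcode pairs of the diploids are counted by sequencing. Scores were corrected for input abundance and mapped to Kd with protein pairs of known affinity run in the same pool. Each pool was mated in three replicate cultures.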

Parent: Ab-14, a human scFv built as VH, a (GGGGS)3 linker, VL. Only the CDRs of the light chain vary.
VH: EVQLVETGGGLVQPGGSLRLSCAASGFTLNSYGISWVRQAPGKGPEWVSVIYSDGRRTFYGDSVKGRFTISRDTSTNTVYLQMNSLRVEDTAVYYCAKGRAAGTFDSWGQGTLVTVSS
VL: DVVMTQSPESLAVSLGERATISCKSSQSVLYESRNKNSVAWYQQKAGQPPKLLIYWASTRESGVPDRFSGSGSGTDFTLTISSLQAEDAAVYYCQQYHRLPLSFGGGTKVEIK

The parent's light chain CDRs are KSSQSVLYESRNKNSVA, WASTRES, QQYHRLPLS; each variant's own CDRs replace them letter for letter. The read-out is the apparent dissociation constant on a log10 scale (nM): the lower, the stronger. The mean shown is taken over the replicates in which the pair was detected. "nd" marks a missing value. The strain was present, yet no cells mated with the target were sequenced in that replicate, which points to weak or no binding.

CDR-L1 | CDR-L2 | CDR-L3 | replicates, log10 nM | mean, log10 nM | control signals
KSSQSVLYESRNKNSVA | WASIRER | QQYHREPLS | 4.62 3.89 nd | 4.25 | 2/9 (4.09)
KSSQSVLYESRNKNKVK | WASTRAS | QQYHRLPLS | nd nd nd | nd | 0/9
KSSQSVLYESRNRNSVA | WASTRET | TQYHRLPLS | 1.91 2.20 1.61 | 1.91 | 1/9 (2.83)
KSSQSVLYDSRNKYSVA | WADTRES | QQYHRLPLS | 0.61 0.82 0.72 | 0.72 | 2/9 (4.62)
KSSQSVNYESRAKNSVY | WASTRES | QQYHRLPLS | nd 3.39 nd | 3.39 | 1/9 (4.30)
KSSQSVLSESRNKNSTA | WASTREY | QQYHRLPLS | nd nd nd | nd | 2/9 (3.22)
KSSQSVLYESRNKNSVA | WPSTREI | QGYHRLPLS | nd nd 3.91 | 3.91 | 4/9 (4.23)
KSSQSVIYESRNKNSVA | LASTRES | QQVHRLPLS | 1.97 1.59 1.44 | 1.67 | 0/9
KSSQSVLYESRNKNSVA | WLSTRES | QQYHRLPLS | 3.25 3.26 2.80 | 3.10 | 1/9 (2.74)
KSSQSVLYESRNKNSVA | WARYRES | QQYARLPLS | 1.27 1.84 1.88 | 1.66 | 1/9 (3.88)
KDSCSVLYESRNKNSVA | WASTRES | QTYHRLPLS | nd nd nd | nd | 4/9 (4.78)
KNSQSHLYESRNKNSVA | WASTRES | QQYHRLALS | 1.91 1.37 1.61 | 1.63 | 0/9
HSSQSVLYESRNKNSVK | WASTRES | QQYHRLPLS | 4.11 4.11 5.91 | 4.71 | 6/9 (4.18)
KSSQSNLYESRNKNSVA | WASTREP | QQYHRLPLS | nd nd nd | nd | 0/9
ASSQSVLYESTNKNSVA | WASTRES | QQYNRLPLS | 1.22 1.45 1.27 | 1.31 | 0/9
KLSQSVLYEGRNKNSVA | WDSTRES | QQYHRLPLS | 0.43 0.76 0.64 | 0.61 | 0/9
KVSQSVLYESRNKNSVA | WASTRES | QQYKRMPLS | 0.71 0.48 0.33 | 0.51 | 0/9
MSSQSVLRESRNKNSVA | WASTRRS | QQYHRLPLS | nd 3.76 nd | 3.76 | 0/9
KSSQSVLYESRNKNGWA | WASTRIS | QQYHRLPLS | nd nd 4.52 | 4.52 | 1/9 (3.36)
KSSQSVLQESCNKNSVA | WASTRES | QQYHRLPLS | 0.85 0.91 0.79 | 0.85 | 1/9 (4.06)
KSSQSQLYESRNKNSVA | WASTRES | QQYHMLPKS | nd 4.37 nd | 4.37 | 3/9 (4.10)
KSSQSVTYECRNKNSVA | WQSTRES | QQYHRLPLS | nd 3.86 4.31 | 4.09 | 1/9 (4.00)
KSSQSVLYVSRNKTSVA | WASTWES | QQYHRLPLS | nd nd nd | nd | 1/9 (4.76)
KSSQNVLYESRNKNSVA | WASTRES | KQYHRLPLL | nd nd nd | nd | 3/9 (2.98)
KSSQSVLYETRNPNSVA | WASTRES | QQYHKLPLS | 0.91 1.00 1.04 | 0.98 | 0/9
KMSQSVLYESRNKNSVA | WASTRES | QQYHREALS | nd nd nd | nd | 2/9 (3.99)
KSSISVLYEKRNKNTVA | WASTRES | QQYHRLPLS | nd nd nd | nd | 0/9
KSSQSVLYESRNKNSSA | WLSTRES | QQYHYLPLS | nd nd nd | nd | 1/9 (3.34)
KSSQSQLVESRNKNSRA | WASTRES | QQYHRLPLS | 6.03 nd nd | 6.03 | 2/9 (3.37)
KSSQSVLYESRNKKSVA | WASERES | QQYHRLGLS | 1.00 1.36 1.41 | 1.26 | 0/9
KSSQSVLYESRNKKSVA | WASVRES | QQYHRLPLS | 1.13 1.27 1.14 | 1.18 | 5/9 (4.65)
KSSDSVLYESRNKNSVA | AASTRES | QNYHRLPLS | 1.25 1.83 1.47 | 1.52 | 1/9 (4.02)
KSSQSVLYESRNKNSEA | WESTRES | QQYHYLPLS | nd nd nd | nd | 1/9 (3.44)

For reference, 2 entries of the list once more:

CDR-L1,CDR-L2,CDR-L3,"replicates, log10 nM","mean, log10 nM",control signals
KNSQSHLYESRNKNSVA,WASTRES,QQYHRLALS,1.91 1.37 1.61,1.63,0/9
KSSQSVIYESRNKNSVA,LASTRES,QQVHRLPLS,1.97 1.59 1.44,1.67,0/9

For reference, the parent read 0.65 as the reference entry and 1.68 as a member of this library. As a blank, each scFv also met three strains without target: over library AAYL50, 18% of these pairings were detected, typically at 4.19 and seldom below 2.99. The control count says in how many pairings with the empty strains this scFv gave a signal, with their mean in brackets.